Consider one compound from US20090099250A1, “BENZOCYCLOHEPTENE DERIVATIVES AS ESTROGENS HAVING SELECTIVE ACTIVITY” (priority 2007, published 2009).

Amino acid sequences for entries named in this document (tags omitted). Residues count along the entry.
UniProt Q92731, 223-530, stated change not applied: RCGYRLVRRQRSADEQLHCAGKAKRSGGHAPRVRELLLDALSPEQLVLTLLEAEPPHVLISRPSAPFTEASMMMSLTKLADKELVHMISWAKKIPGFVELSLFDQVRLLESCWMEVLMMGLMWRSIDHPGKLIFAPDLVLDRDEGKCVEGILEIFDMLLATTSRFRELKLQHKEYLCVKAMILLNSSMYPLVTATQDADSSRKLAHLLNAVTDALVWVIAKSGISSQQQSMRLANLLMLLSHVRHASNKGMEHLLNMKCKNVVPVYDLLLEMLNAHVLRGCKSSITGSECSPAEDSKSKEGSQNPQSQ

In the experiment the target is GAL4-human estrogen receptor β (ERβ) ligand-binding domain chimera (Homo sapiens, UniProt Q92731). As to the kind of experiment: GAL4 chimera luciferase reporter assay in CHO K1 cells, ERb. Conditions: Table 3. (In general: Reporter assays use an easily measured gene product as a stand-in for the process of interest.)

Consider `C[C@]12CCC3c4ccc(O)cc4CCC3C1CC[C@@H]2O` (stereo partly shown) [Estradiol], for which the “GAL4-assay, Potency at ERb (% of E2)” value is 100.0 % of E2.
